Measurements: ChEMBL document CHEMBL3286346, “Ultrapure ajulemic acid has improved CB2 selectivity with reduced CB1 activity” (Bioorg Med Chem, 2014)
pKi: −log10 of the molar value.

Sequences of proteins named here, by UniProt entry; tags and fusion partners are left off.
UniProt P21554, whole entry: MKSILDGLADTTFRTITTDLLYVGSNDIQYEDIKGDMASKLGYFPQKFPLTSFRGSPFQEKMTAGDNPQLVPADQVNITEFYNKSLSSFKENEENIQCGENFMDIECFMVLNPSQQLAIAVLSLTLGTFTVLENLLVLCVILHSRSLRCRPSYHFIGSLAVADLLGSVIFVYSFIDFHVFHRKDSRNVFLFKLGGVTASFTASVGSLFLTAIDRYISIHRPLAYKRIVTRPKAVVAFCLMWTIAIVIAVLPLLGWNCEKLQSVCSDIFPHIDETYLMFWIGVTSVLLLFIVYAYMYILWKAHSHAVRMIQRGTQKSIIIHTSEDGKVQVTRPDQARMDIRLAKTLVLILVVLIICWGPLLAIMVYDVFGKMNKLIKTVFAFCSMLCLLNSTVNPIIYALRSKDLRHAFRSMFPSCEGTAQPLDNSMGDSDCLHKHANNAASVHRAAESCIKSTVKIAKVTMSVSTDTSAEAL

Target: Cannabinoid receptor 1 (Homo sapiens, UniProt P21554)
Assay: biochemical
Format: cell-based, HEK-293T

Cc1ccc(Cn2nc(C(=O)N[C@@H]3C(C)(C)[C@@H]4CC[C@@]3(C)C4)cc2-c2ccc(Cl)c(C)c2)cc1 [SR-144528]
pKi: 9.40
